Screens: PubChem BioAssay, National Center for Advancing Translational Sciences (NCATS)
PTHR1 ag: agonists of human PTHR1 parathyroid hormone receptor; Q03431; HEK293 GP2 PTHR1 cells, GloSensor cAMP luminescence, 1 h; Potency, µM (highest dose often 115 µM), actives largely listed as activators; 410,000 tested, 0.075% active; AID 743266; also: nearly all actives have a fitted effect of over 55% in size
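HEK-293-derived GP2 cells expressing PTHR1 and a GloSensor cAMP reporter, 3,000/well, plated overnight, given luciferin plus IBMX (each 0.5 mM as added) for 1 h at 37 °C, then compound for 1 h at 37 °C. Luminescence was read after 15 min at room temperature.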
PINK1 modulator: changes PINK1 expression; Potency, µM (highest dose often 76.6 µM), hits mostly activators; 410,000 tested, 0.2% active; PINK1 immunofluorescence, high-content cytometry, 24 h; active = well fitted activation curve with a large enough effect; inconclusive = small, poorly fitted or top-dose-only effect; cell line not stated here; also: nearly all actives have a fitted effect of over 65% in size
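Stable cell line treated 24 h with compounds at 5 concentrations (CCCP controls), then fixed and immunostained for PINK1 plus nuclear and cell stains; PINK1 immunofluorescence quantified by laser-scanning microplate cytometry.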
Giardia kill: Giardia lamblia killing; Giardia lamblia trophozoite viability; activity change, % at 7.66 µM, hits read low; 340,000 tested, 0.15% active; in the data active = activity change below about -80%; inconclusive = between about -30% and that limit;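 also: parasites exposed to compound for two days anaerobically before the ATP read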
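Luminescent ATP signal served as the viability read-out, measured 15-30 min after adding ATP detection reagent to trophozoites that had been incubated with compounds for 48 hrs at 37 deg C anaerobically at 100 cells/well.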
ERG-DNA inh: blocks human ERG Ets domain binding to DNA. fluorescence polarization, His-ERG Ets domain / labelled DNA. P11308. Potency, µM (top dose mostly 76.9 µM), actives largely listed as inhibitors. 370,000 tested, 0.028% active. AID 624246; active = well fitted inhibition curve with a large enough effect in the polarisation, with a control signal flat; inconclusive = small, poorly fitted or top-dose-only effect, or effect the other way, or a change in a side signal; inactive = no such curve, though single readings can be large or run the other way; the % refers to the polarisation;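 also: polarization taken with two DNA probes labelled with fluorescein and Texas red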
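His-tagged ERG Ets domain (1 uM in the protein solution; 300mM KCl, 50mM Tris-HCl, 1mM EDTA, 1mM DTT, pH 7.5) received compound, then a probe mix of 5 nM fluorescein-DNA and 100nM Texas-615-DNA. Fluorescence polarization was read for both dyes.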
12-LOX inh: blocks human arachidonate 12S-lipoxygenase; P18054; purified 12hLO, xylenol orange hydroperoxide absorbance; Potency, µM (titrated, usually from 108 µM), actives largely listed as inhibitors; 580,000 tested, 1.1% active
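Hydroperoxide product was detected by ferrous iron/xylenol orange as the 573 to 405 nm absorbance ratio. Arachidonic acid at 40 uM (final) was turned over for 30 min at room temperature by 150 nM human 12hLO, pH 7.0 Hepes buffer, after 15 min compound preincubation.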
miR-21 reporter: miR-21 reporter, rising signal; HeLa miR-21 FLuc reporter, luciferase, 48 h; Potency, µM (highest dose often 38.3 µM); 340,000 tested, under 10 active; AID 2288; active = well fitted rising curve with a large enough effect; inconclusive = small, poorly fitted or top-dose-only effect; inactive = no such curve, though single readings can be large or run the other way;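 further: miR-21 action dims this reporter so a rising signal means less miR-21 action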
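HeLa cells endogenously expressing miR-21, stably carrying CMV-driven firefly luciferase with a downstream miR-21 binding site, 2000 cells/well. Titrations up to approximately 40 uM, 48 hours; luciferase luminescence read.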
Hits are given with their value; – = inactive; ? = inconclusive; · = no result; ! = repeats disagree. Rows were chosen to be rich in hits. Some 1.3% of all compounds tested hit in one or more screens of this group. Unless noted, calls follow the shape of the dose curve; as a rule, active = well fitted curve in the direction sought with a large enough effect; inconclusive = small, poorly fitted or top-dose-only effect, or another doubt; inactive = no such curve, though single readings can be large; an effect the other way counts as inactive or inconclusive.

SMILES | PTHR1 ag | PINK1 modulator | Giardia kill | ERG-DNA inh | 12-LOX inh | miR-21 reporter
CCOCCCNC(=O)c1cc2c(=O)n(CC)c3ccccc3c2s1 | – | – | – | – | – | –
O=C(NCc1ccccn1)c1cn(-c2ccccc2)nc1-c1ccc(Cl)cc1 | – | – | – | · | – | –
Cc1cccc(C)c1NC(=O)C(C)Sc1ccc2c(c1)OCCCO2 (stereo not given) | · | · | · | · | – | ·
CN(C)c1ccc(C(=S)N2CCN(c3ccc([N+](=O)[O-])cc3)CC2)cc1 | – | – | – | – | ? | –
S=C(NCCSc1ccc(Cl)cc1)NC1CCCC1 | · | · | · | · | 28.2µM | ·
CCOC(=O)C1=C(N)c2ccccc2CC1C1CCCC1 (stereo not given) | – | – | – | – | – | –
C=C1c2ccccc2O[C@H](C(=O)OCC)[C@@H]1C1CCCCC1 | – | ? | – | – | 20µM | ·
CC(C)Sc1nc2ccc(Br)cc2[nH]1 | – | – | – | – | – | –
CCOC(=O)C1=C(C)N(C[C@@H]2CC[C@@H](Cc3ccc(-c4ccccc4)cc3)O2)C(=O)NC1c1ccc(C(F)(F)F)cc1 (stereo not given in full) | – | – | – | – | – | ·
CCOC(=O)C1=C(C)N(C[C@@H]2CC[C@@H](Cc3ccc(-c4ccccc4)cc3)O2)C(=O)NC1c1ccc(SCc2ccco2)c([N+](=O)[O-])c1 (stereo not given in full) | – | – | – | – | 17.8µM | ·
CCOC(=O)c1ccc2c(c1)nc(SCC(=O)c1ccco1)n2CC | – | – | – | – | ? | –
CCOC(=O)c1ccc2c(c1)nc(SC/C(O)=C(\C#N)c1nc3ccccc3[nH]1)n2CC | – | 39.8µM | – | – | – | –
Cc1noc(C)c1-c1cc(NCCN2CCOCC2)ncn1 | · | – | · | · | 39.8µM | ·
COc1cscc1C(=O)O | – | – | – | – | ? | –
CC(C)Oc1ccc(Br)cc1/C=N/O | · | · | · | · | – | ·
CC(C)Oc1ccc(Br)cc1/C=N\NC(N)=S | – | – | – | – | 39.8µM | –
CN(Cc1ccccc1)c1cc2c(c3c1ccn3C)C1CCC2O1 (stereo not given) | – | – | · | · | ? | ·
Cn1ccc2c(N(Cc3ccccc3)Cc3ccccc3)cc3c(c21)C1CCC3O1 (stereo not given) | – | – | · | · | 11.2µM | ·
O=C(/C=C/c1ccccc1)C1=C(O)C(=O)N(CCO)C1c1ccc2c(c1)OCO2 (stereo not given) | – | – | – | – | 7.94µM | –
CCCc1ccc(C2C3=C(CC(C)(C)CC3=O)NC3=C2C(=O)c2ccccc23)cc1 (stereo not given) | – | – | – | – | 25.1µM! | ?
COC(=O)c1ccc(OCC(O)CN2C(=O)c3ccccc3C2=O)cc1 (stereo not given) | – | – | – | – | – | –
Cc1ccc(N(C(=O)Cn2nnc(-c3ccc(F)cc3)n2)C(C(=O)NC(C)(C)C)c2ccncc2)cc1 (stereo not given) | 44.7µM | – | – | – | – | –
CC(C)(C)NC(=O)C(c1ccncc1)N(C(=O)Cn1nnc(-c2ccc(F)cc2)n1)c1ccc(F)cc1 (stereo not given) | – | – | – | – | – | –
COCCn1c2c(c(=O)n1-c1ccccc1)CCN(C(=O)c1cccc(C#N)c1)C2 | · | · | · | · | – | ·
Cc1c(F)cccc1NC(=O)N(C)CC1CCOCC1 | · | · | · | · | – | ·
SMILES | PTHR1 ag | PINK1 modulator | Giardia kill | ERG-DNA inh | 12-LOX inh | miR-21 reporter
O=C(Nc1nccs1)c1ccc(-c2ccc([N+](=O)[O-])cc2)o1 | – | 35.5µM | – | – | – | –
O=C(Nc1nccs1)c1ccc(-c2ccc(Cl)cc2)o1 | – | – | ? | – | – | –
C=CC#CC1(O)CC(C)[N+](C)(C)CC1C (stereo not given) | ? | – | – | – | 35.5µM | –
Cc1ccc(-c2noc(CSc3nc(N)cc(N)n3)n2)cc1 | – | – | – | – | – | –
CC(=O)NCc1ccc(-c2csc(Nc3cccc(C(F)(F)F)c3)n2)o1 | · | · | · | · | 10µM | ·
COc1cccc(Nc2nc(-c3ccc(CNC(C)=O)s3)cs2)c1 | · | · | · | · | 15.8µM | ·
COc1cccc(Nc2nc(-c3sc(C)nc3C)cs2)c1 | – | – | – | – | – | –
COc1cccc(Nc2nc(-c3sc(NC(=O)c4ccco4)nc3C)cs2)c1 | ? | – | – | – | 6.31µM | –
COc1ccc2nc(NC(=S)NC(=O)c3ccco3)sc2c1 | – | – | ? | – | – | –
COc1ccc2sc(NC(=O)c3ccco3)nc2c1 | – | – | ? | · | 8.91µM | –
CCOCCCNC(=O)CN1C(=O)c2cccc3cccc1c23 | – | – | – | – | – | –
O=C(C1CC1)N1CCC(c2nn(-c3ccc(F)cc3)c(=O)[nH]2)CC1 | · | · | · | · | – | ·
Cc1ccc(N2C(=O)CS(=O)(=O)C23C(=O)N(Cc2cccc(F)c2)c2ccccc23)cc1Cl (stereo not given) | – | – | · | – | – | –
CC1=NN2C(=N)/C(=C\c3ccc(SCc4ccccc4)o3)C(=O)N=C2S1 | – | – | – | – | 39.8µM | –
Cc1cccc(/C=C(/C#N)C(=O)c2c(C)[nH]c3ccccc23)c1 | · | · | · | · | – | ·
CCc1ccc(/C=C(/C#N)C(=O)c2c(C)[nH]c3ccccc23)cc1 | · | · | · | · | 14.1µM | ·
CCc1nc2c(NC(=O)Nc3cccc(C(=O)OC)c3)cccn2n1 | · | · | · | · | 70.8µM | ·
CCCN1CNC(=S)N(N2CN(CCC)CNC2=S)C1 | · | · | · | · | 12.6µM | ·
COc1cc(-c2nnc(SCc3nc4ccccc4o3)o2)cc(OC)c1OC | · | · | · | · | – | ·
CCC(O)C(C)(C)C (stereo not given) | – | – | – | – | – | ·
CCOc1ccc(S(=O)(=O)Nc2cnc3ccccc3c2)cc1 | – | – | – | – | – | –
Cc1cc(C)c(S(=O)(=O)Nc2cnc3ccccc3c2)c(C)c1 | – | – | – | – | 15.8µM! | –
NC(=S)N/N=C/C1=C(c2ccccc2)C2C=CC1C2 (stereo not given) | · | · | · | · | 8.91µM | ·
CC(C)(C)OC(=O)NC(=NCCCc1cn(CC(=O)N2CCN(C(=O)OC(C)(C)C)CC2)nn1)NC(=O)OC(C)(C)C | – | – | – | – | – | –
CN(C)c1ccc(C=c2c3ccccc3n3c2cc(-c2ccccc2)[n+]3C)cc1 | – | – | – | – | 39.8µM | ·
CN(C)c1ccc(C=c2c3cc([N+](=O)[O-])ccc3n3c2cc(-c2ccccc2)[n+]3C)cc1 | – | – | – | · | 7.94µM | ·
CN(C)c1ccc(C=c2c3ccccc3n3c2cc(-c2ccc(Cl)cc2)[n+]3C)cc1 | – | – | – | · | 44.7µM | ·
COc1cc(N(C)C)ccc1C=c1c2ccccc2n2c1cc(-c1ccccc1)[n+]2C | – | – | – | – | ? | ·
CS(=O)(=O)N(CC(=O)N1CCN(c2ccccc2)CC1)C1CCCCC1 | – | – | – | – | – | –
